Laboratory results: PubChem BioAssay AID434978 (Johns Hopkins Ion Channel Center, 2010)
This is a selection; strong and weak results do not stand in their true shares. Calls of active or inactive are those of the source.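 The calls were made as follows: active = primary screen active whose calcium signal fell more than 3 SD beyond the full-serotonin control mean in both duplicate plates; inactive = the rest.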

Experiment: serotonin-gated TRPC4 signal block – cell-based, second counter screen, HEK293 TRPC4/5HT1a, Fluo-4, counter-screen for TRPC4 inhibitor project, confirmation (AID 434978)
Conditions: Fluo-4 calcium flux, at 10 µM, serotonin added to trigger calcium flux; hits give high values

Compound	inhibition
CN(C)CCOC(=O)C(O)(c1ccccc1)C1CCCC1 (configuration not stated)	active: 33.2%
CCN(CC)CCCOC(=O)C(O)(c1ccccc1)c1ccccc1	inactive
